# Measured affinities in a library of Ab-95 light chain variants

Target peptide (SARS-CoV-2 spike, HR2 region): PDVDLGDISGINAS

Ab-95 is the parent antibody, in scFv form: VH, then the linker GGGGSGGGGSGGGGS, then VL. The heavy chain is unchanged in all variants.
VH: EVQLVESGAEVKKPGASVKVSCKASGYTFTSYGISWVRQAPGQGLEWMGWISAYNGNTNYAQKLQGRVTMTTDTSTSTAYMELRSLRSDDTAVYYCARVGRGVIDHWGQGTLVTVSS
VL: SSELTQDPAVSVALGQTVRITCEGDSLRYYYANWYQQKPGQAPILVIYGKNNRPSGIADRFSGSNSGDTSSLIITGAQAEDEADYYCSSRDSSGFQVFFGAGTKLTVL

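Phage display of a naive human antibody library on the peptide gave the parent. In library AAYL52, one, two or three CDR residues were substituted; doubles and triples were drawn at random. The scFvs were displayed on barcoded MATa yeast, the peptide on MATalpha yeast. After mating in shaken culture at 30 °C for 16 h, diploids were selected and their barcode pairs sequenced. Scores were corrected for input abundance and mapped to Kd with protein pairs of known affinity run in the same pool. The assay was run in three technical replicates.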

Positions count from residue 1 of the parent VL; G24R puts R in place of G.
Affinities are written as log10 Kd with Kd in nM; a lower number is a better binder.
Replicates are averaged; those with no signal do not enter the mean.
Where no diploid with the target was found in that replicate, the entry reads "ND": below detection, most likely a poor binder, though not proof of it.
Three control strains display no target. For library AAYL52, 28% of the pairings with them gave a signal, with a median of 3.91 and one signal in twenty below 2.90, so weak values seen in few replicates may be background. The control count says in how many pairings with the empty strains this scFv gave a signal, with their mean in brackets.

changes	log10 Kd (nM) by replicate	mean log10 Kd (nM)	empty controls
G24R+A32P+F98A	2.73 2.46 2.74	2.64	3 of 9 (3.94)
G24M+S26I+S93T	ND ND ND	ND	1 of 9 (3.34)
D25F+Y29W+G94I	4.32 4.01 3.46	3.93	4 of 9 (4.56)
D25V+K50W+S88N	4.44 ND ND	4.44	5 of 9 (3.93)
E23I+S26M+Y29H	2.85 2.79 3.71	3.12	2 of 9 (2.71)
N51E+S92Y+F95H	4.19 3.45 4.03	3.89	2 of 9 (3.44)
E23R+L27C+R53Y	4.28 ND ND	4.28	5 of 9 (4.07)
L27W+A32T+N52P	ND ND ND	ND	3 of 9 (4.13)
D25Y+S88D+F95D	ND 4.27 ND	4.27	4 of 9 (3.77)
Y30D+N33D+N52T	4.81 5.60 4.37	4.93	2 of 9 (4.21)
Y30E+Y31W+D91L	2.27 2.26 2.26	2.26	3 of 9 (3.74)
Y30Q+R53A	1.05 0.90 0.35	0.77	5 of 9 (4.34)
G24C+Y30Q+N33E	4.76 4.27 3.49	4.17	6 of 9 (4.31)
L27H+R28H+K50H	3.30 4.22 ND	3.76	4 of 9 (3.90)
K50F+P54I+S89P	3.89 3.98 ND	3.93	4 of 9 (4.23)
Y29V+P54Q+D91C	ND ND ND	ND	0 of 9
P54K+D91F+F98N	ND ND ND	ND	0 of 9
D25Y+S92G+G94R	2.55 3.42 2.45	2.81	4 of 9 (3.84)
E23D+N33A+S92Y	ND ND ND	ND	3 of 9 (4.04)
N52C+R53V+S55D	2.56 2.72 ND	2.64	1 of 9 (2.29)
D25A+S26V+L27T	2.99 3.79 2.19	2.99	4 of 9 (4.21)
G49V+S93D+V97I	ND ND ND	ND	0 of 9
S26W+R28Y+G94K	ND ND ND	ND	1 of 9 (4.83)
Y30V+R53P+S88T	4.16 ND ND	4.16	1 of 9 (4.26)
G24H+R28H+S55A	3.00 2.56 2.71	2.76	3 of 9 (3.90)
S26K+A32V+V97K	ND ND ND	ND	1 of 9 (3.34)
R28T+P54C	2.49 3.16 2.59	2.75	2 of 9 (3.87)
S88C+R90A+D91Q	1.75 1.55 1.31	1.54	2 of 9 (4.91)
N52A+P54R+S55N	3.60 3.24 2.58	3.14	3 of 9 (3.46)
S88N+S89R+G94A	ND ND ND	ND	0 of 9

Again, the first 4 entries without any signal:

| changes | log10 Kd (nM) by replicate | mean log10 Kd (nM) | empty controls |
|---|---|---|---|
| G24M+S26I+S93T | ND ND ND | ND | 1 of 9 (3.34) |
| L27W+A32T+N52P | ND ND ND | ND | 3 of 9 (4.13) |
| Y29V+P54Q+D91C | ND ND ND | ND | 0 of 9 |
| P54K+D91F+F98N | ND ND ND | ND | 0 of 9 |

Source: Engelhart et al. 2022 (doi:10.1038/s41597-022-01779-4), MIT Lincoln Laboratory and A-Alpha Bio; data file from the FLAb repository.